Data published in US9739772B2, “Method of analyzing binding aspect of membrane protein in a living cell” (POSTECH ACADEMY-INDUSTRY FOUNDATION, priority 2013, dated 2017).

Columns and labels:
[1] = test system: EGFR activation caused by EGF; assay: western blotting of EGFR and Erk1/2 phosphorylation in COS7 cells with/without EGF; assay type: cell-based; conditions: EGF-existing environment
[2] = test system: endogenous EGFRs expressed in various cell lines; assay: smDIMSA of endogenous EGFRs in COS7, A431, MDA-MB-231, BT20, HCC827 cell lines; assay type: binding; conditions: five cell lines: COS7, A431, MDA-MB-231, BT20, HCC827; vs non-treatment
Protocol: Afterward, the same cells as previously used were treated with an immunoglobulin antibody or cetuximab, and diffusion coefficients were measured by the same method as described above. Changes in diffusion coefficient were calculated by Equation 3, compared to that under the non-treatment condition, and the results are shown in FIG. 32.

[3] = test system: membrane protein present on the cell surface of COS7 cells; assay: flow cytometry of Alexa Fluor 647-conjugated antibodies on COS7 cells; assay type: binding
Protocol: In detail, COS7 cells were treated with the Alexa Fluor 647-conjugated antibody to induce binding with a membrane protein, and a fluorescent signal attached to the surface of the cell was observed by flow cytometry, and the results are shown in FIG. 15.

PMT = target: T1, PMT (Homo sapiens, UniProt O75695); assay: smDIMSA: change in diffusion coefficient of control PMT-mEos3.2 in living COS7 cells; assay type: binding; conditions: for change in diffusion coefficient of PMT: COS7 cells expressing PMT-mEos3.2
T1 construct: expressed in transfected cells; host or cells: COS7
Protocol: A plasmid in which PMT is linked with a fluorescent protein was prepared to be used as a control group for Example 1.1. DNA (SEQ ID NO: 5) corresponding to PMT was inserted into the subcloned pcDNA3.1/mEos3.2-his using restriction enzymes such as Xbal (SEQ ID NO: 3) and NotI (SEQ ID NO: 4), thereby constructing pcDNA3.1/PMT-mEos3.2-His.
COS7 cells provided by ATCC were grown in DMEM (Dulbecco's Modified Eagle Medium, Lonza) under conditions of 37° C., 5% CO2, and 95% humidity, with 10% FBS (Gibco), and COS7 cells were transfected with each of the plasmids constructed in Examples 1.1 and 1.2 using Lipofectamine 2000 (Invitrogen) according to the manufacturer's instruction. To reduce the influence of protein overexpression, cells showing especially low expression level were sorted from the cells grown for 24 hours after transfection through flow cytometry. In detail, the transfected cells were washed with PBS to remove debris, detached from a bottom using a detaching buffer, and collected and strained with a cell strainer (40 μm, BD Bioscience). Afterward, the cells showing low expression level were specifically sorted using a MoFlo™ XDP cell sorter (Beckman Coulter).
The coverslip on which the cells were seeded as described in Example 1.3 was placed onto a microscope with a live cell chamber (37° C., 5% CO2) and an electron multiplying charge coupled device (EM-CCD) and observed the cells at a single cell level. The microscope, the Olympus IX71 model, is designed based on total internal reflection fluorescence (TIRF), and can be used to observe only fluorescent molecules at a plasma membrane of a cell closely attached (within about 200 nm from a coverslip) to a round coverslip. mEos3.2 fluorescent proteins were randomly converted from a green form into a red from by cleaving their backbone using 405 nm laser, and an image of the randomly converted red-form mEos3.2 fluorescent protein was obtained by an electron multiplying charge coupled device (EM-CCD), ixon3 897, manufactured by Andor Technology, which can detect a signal emitted from a single fluorescent molecule using 561 nm laser.
The fluorescent images were sequentially obtained at regular intervals of time (about 150 ms), and a centroid was found from the signal of a single molecule present on each image through centroid fitting, and the moving distance per unit time and the trajectory of the fluorescent protein were determined by using multiple tracking between consecutive images, and a mean square displacement (MSD) was calculated by Equation 1.

[4] = test system: endogenous EGFR expressed in COS7 cells; assay: smDIMSA of endogenous EGFR labeled with Alexa Fluor 647-conjugated Fab of mAb 199.12 in a single living COS7 cell; assay type: binding; conditions: cetuximab 20 μg/ml
Protocol: Fab fragments were generated using a Fab preparation kit (Pierce, 44685). First, a resin conjugated with a proteinase, papain, was mixed with an immunoglobulin antibody in a buffer effective for an enzyme reaction to occur and the reaction was conducted at 37° C. for 5 to 6 hours. After the reaction was completed, the antibody that is cleaved into two Fab fragments and an Fc fragment and the papain resin were centrifuged to separate only a supernatant. A protein A-conjugated resin and the supernatant were mixed, and then centrifuged again, thereby obtaining a purified Fab fragment.
Antibodies were conjugated with an organic fluorescent dye, Alexa Fluor 647, using an Alexa Fluor® 647 antibody labeling kit (Invitrogen). […]
The fluorescence-labeled endogenous EGFR prepared in Example 12.5 was illuminated with 642 nm laser to temporarily turn off the fluorescence of Alexa Fluor 647 to make it possible to observe at a single molecule level, the electron state of the fluorescent molecule was changed with 405 nm laser to allow to randomly turn on the fluorescence, and then fluorescent images were sequentially obtained with 642 nm laser at regular intervals of time (about 50 ms) by an electron multiplying charge coupled device (EM-CCD) ixon3 897, manufactured by Andor Technology, which can detect a signal transmitted from a single fluorescent molecule. […]

[5] = Example 8, molecular specificity test, before vs after antibody

| change in diffusion coefficient of PMT (PMT; 20 μg/ml, before vs after treatment (Examples 1.5, 7)) | change in diffusion coefficient of PMT (PMT; [5]) | Substance | phosphorylation of EGFR (western blotting) [1] | change in diffusion coefficient of endogenous EGFR [2] | attachment of Alexa Fluor 647-conjugated antibody to the cell surface (flow cytometry) [3] | reduced diffusion coefficient of PMT (PMT; Example 10.2, PMT-expressed COS7 cells) | change in diffusion coefficient of endogenous EGFR [4] |
| --- | --- | --- | --- | --- | --- | --- | --- |
| almost no change | no change | cetuximab | prevent phosphorylation of EGFR | about 40% | relatively well attached to the cell surface | a reduced diffusion coefficient of PMT is not shown | about 40% |
| – | no change | trastuzumab | – | – | relatively well attached to the cell surface | – | – |
